Some compounds may have been tested in ways that are not shown here.
Biological target: human LPAR1 (Homo sapiens, UniProt Q92633)
Experiment: In vitro functional assay of lysophosphatidic acid receptor 1 activity (calcium flux)
Type: cell-based
Details: read-out: LPAR1 IC50; B103 cells stably expressing human LPAR1; calcium flux (Fluo-4 NW) after lysophosphatidic acid (18:1) at EC80; 100 pM to 10 μM

The chains behind the UniProt entries cited, without tags or fusion partners.
UniProt Q92633, whole entry: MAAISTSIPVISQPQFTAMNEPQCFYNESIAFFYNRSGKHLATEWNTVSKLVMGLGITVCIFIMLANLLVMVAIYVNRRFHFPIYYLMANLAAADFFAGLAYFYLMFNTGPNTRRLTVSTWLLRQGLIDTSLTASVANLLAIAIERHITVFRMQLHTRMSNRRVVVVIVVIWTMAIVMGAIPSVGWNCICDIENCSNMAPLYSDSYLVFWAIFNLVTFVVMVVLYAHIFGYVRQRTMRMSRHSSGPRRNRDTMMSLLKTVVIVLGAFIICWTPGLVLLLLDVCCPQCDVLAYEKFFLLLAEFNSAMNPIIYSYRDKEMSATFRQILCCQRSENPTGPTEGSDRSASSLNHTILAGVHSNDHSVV

Work on `Cc1cc(OC(F)F)c(NC(=O)N(c2ccccc2C(C)C)C2CCN(C3COC3)CC2)cn1` yielded an IC50 of 10 to 100 nM.
Molecule `COc1cc(Cl)ncc1NC(=O)N(c1ccccc1C(C)C)C1CCN(C2COC2)CC1` has an IC50 of 10 to 100 nM.
Work on `COc1cc(Cl)ncc1NC(=O)N(c1ccccc1C(C)C)C1CCN(C2CCC2)CC1` yielded an IC50 of 100 to 1000 nM.
`Cc1cc(OC(F)F)c(NC(=O)N(c2ccccc2C(C)C)C2CCN(C3(C)COC3)CC2)cn1` was tested, and the IC50 was 10 to 100 nM.
`COc1ccc(NC(=O)N(c2ccccc2C(C)C)C2CCN(C3COC3)CC2)c(OCC(F)F)n1` showed an IC50 of 100 to 1000 nM.
`CC(C)c1ccccc1N(C(=O)Nc1cc(F)c(Cl)cc1OCC(F)F)C1CCN(C2COC2)CC1` showed an IC50 of 100 to 1000 nM.
`CC(C)c1ccccc1N(C(=O)Nc1cc(F)c(F)cc1OC(F)F)C1CCN(C2COC2)CC1` showed an IC50 of 10 to 100 nM.
In the case of `COc1ccc(NC(=O)N(c2ccccc2C(C)C)C2CCN(CC(F)F)CC2)c(OC(F)F)n1`, the IC50 is reported as 10 to 100 nM.
Molecule `COc1ccc(NC(=O)N(c2ccccc2C(C)C)C2CCN(CC(F)(F)F)CC2)c(OC(F)F)n1` has an IC50 of 10 to 100 nM.
`Cc1ccc(NC(=O)N(c2ccccc2C(C)C)C2CCN(C3COC3)CC2)c(OCC(F)F)n1` was tested, and the IC50 was 100 to 1000 nM.
With `COc1ccc(NC(=O)N(c2ccccc2C(C)C)C2CCN(CCF)CC2)c(OC(F)F)n1` the IC50 was 100 to 1000 nM.
With `COc1ccc(NC(=O)N(c2ccccc2C(C)C)C2CCN(C3COC3)CC2)c(OCCF)n1` the IC50 was 100 to 1000 nM.
